Results taken from patent US7888389B2 (The Regents of the University of Michigan, priority 2002, dated 2011).

Tested on: metastatic solid tumors
Conditions: two angiosarcoma patients on TM with IFN-α 500,000 units sc twice a day and radiotherapy

Substance: interferon-alpha 2 [IFN-α]
- duration of disease stabilization: over 60 days
